Source: PubChem BioAssay AID374 (University of Pittsburgh Molecular Library Screening Center, 2006)
Only a part is listed here, and it is no random draw. Some of these compounds have results that are not shown, active ones among them. Calls of active or inactive are those of the source.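 How the source made its calls: active means inhibition above about 50% (limit read from the data); inconclusive means inhibition over screen mean plus 3 SD, below that limit; inactive means the rest.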

The chains behind the UniProt entries cited, without tags or fusion partners.
UniProt P28562, whole entry: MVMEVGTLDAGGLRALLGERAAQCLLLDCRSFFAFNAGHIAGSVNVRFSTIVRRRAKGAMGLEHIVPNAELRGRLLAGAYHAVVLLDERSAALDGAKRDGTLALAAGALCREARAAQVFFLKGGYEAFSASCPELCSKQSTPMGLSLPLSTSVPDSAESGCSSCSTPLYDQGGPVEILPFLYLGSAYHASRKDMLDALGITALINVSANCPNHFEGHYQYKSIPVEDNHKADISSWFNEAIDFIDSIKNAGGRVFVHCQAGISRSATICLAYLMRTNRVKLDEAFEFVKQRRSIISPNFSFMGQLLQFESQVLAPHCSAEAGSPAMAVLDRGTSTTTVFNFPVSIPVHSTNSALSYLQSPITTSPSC

Each molecule was assayed against Dual specificity protein phosphatase 1 (Homo sapiens) (UniProt P28562) (assay: blockers of human DUSP1 activity – biochemical, in vitro, primary screen (AID 374;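 further: 0% = DMSO max control wells and 100% = wells with enzyme stopped by NaOH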)). Details: recombinant MKP-1, OMFP hydrolysis fluorescence; hits give high values;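 compounds tested at a single concentration somewhere between 10 and 100 µM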.

Row | Structure (SMILES) | inhibition
1 | CN(C)c1cccc(C(=O)NCC2(N(C)C)CCCCC2)c1 | inactive: -3.18%
2 | O=C(OC1CN2CCC1CC2)C(CO)(c1ccccc1)c1ccccc1 (configuration not stated) | inactive: -7.36%
